Measured values from patent US7358236B1 (priority 2002, dated 2008).

Tested on: P22 rat carcinosarcoma

Row | Molecule | Tumor blood flow, % of control (antihypertensive co-administered with CA-4DP 30 mg/kg i.p., approximately 1 hour after treatment) | THF (tumor blood flow), % of saline control (rat, in vivo, ip, 30 mg/kg)
1 | CC(C)NCC(O)COc1cccc2ccccc12 (racemic) [propranolol, 1-[ispropylamino]3-[1-napthyloxy]-2-propanol hydrocholoride] | 7.6 % of control | –
2 | Combretastatin A-4 Disodium Phosphate Prodrug [CA-4DP] | – | 14 % of saline control
